The results in this text go back to ChEMBL document CHEMBL4342488, “Structure-Activity Relationship Study of Covalent Pan-phosphatidylinositol 5-Phosphate 4-Kinase Inhibitors” (ACS Med Chem Lett, 2020).

Assay [1] concerns the target T1, Phosphatidylinositol 5-phosphate 4-kinase type-2 alpha (Homo sapiens, UniProt P48426).
T1 sequence (P48426 whole entry): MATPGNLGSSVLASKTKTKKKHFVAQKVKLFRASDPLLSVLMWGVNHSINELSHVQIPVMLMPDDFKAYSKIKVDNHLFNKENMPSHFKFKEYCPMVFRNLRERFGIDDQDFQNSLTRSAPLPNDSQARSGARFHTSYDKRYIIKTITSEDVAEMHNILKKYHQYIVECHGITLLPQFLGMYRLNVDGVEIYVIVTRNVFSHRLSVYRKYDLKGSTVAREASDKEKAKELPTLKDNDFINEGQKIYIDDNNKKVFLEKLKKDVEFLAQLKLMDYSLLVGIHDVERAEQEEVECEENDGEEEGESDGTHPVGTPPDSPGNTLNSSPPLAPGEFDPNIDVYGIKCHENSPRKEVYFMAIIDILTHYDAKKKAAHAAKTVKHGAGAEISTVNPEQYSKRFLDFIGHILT
Briefly: Inhibition of PI5P4Kalpha (unknown origin) incubated for 15 mins in presence of ATP by ADP-Glo assay. A general note: ADP-Glo first removes unused ATP, then detects ADP through luciferase.

Assay [2] concerns the target T2, Phosphatidylinositol 5-phosphate 4-kinase type-2 beta (Homo sapiens, UniProt P78356).
T2 sequence (P78356 whole entry): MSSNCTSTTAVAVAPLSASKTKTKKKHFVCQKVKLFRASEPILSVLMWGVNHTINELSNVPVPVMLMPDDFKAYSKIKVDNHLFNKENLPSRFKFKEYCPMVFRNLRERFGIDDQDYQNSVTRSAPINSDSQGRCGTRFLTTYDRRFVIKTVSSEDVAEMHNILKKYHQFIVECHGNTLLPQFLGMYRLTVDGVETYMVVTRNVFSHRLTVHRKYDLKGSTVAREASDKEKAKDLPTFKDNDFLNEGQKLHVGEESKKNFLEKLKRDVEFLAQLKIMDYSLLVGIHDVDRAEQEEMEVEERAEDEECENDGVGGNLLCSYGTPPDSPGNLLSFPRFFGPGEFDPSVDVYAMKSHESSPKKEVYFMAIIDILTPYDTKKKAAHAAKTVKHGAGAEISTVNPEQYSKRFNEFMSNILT
The experiment in a line: Inhibition of PI5P4Kbeta (unknown origin) incubated for 15 mins in presence of ATP by ADP-Glo assay.

A word on the IC50: it is the concentration needed to halve the response being measured. For `CN(C)C/C=C/C(=O)Nc1ccc(C(=O)Nc2cccc(Nc3cc(-c4c[nH]c5ccccc45)ncn3)c2)cc1`, the IC50 in assay [1] was found to be 0.95 µM; in assay [2] it was 5.9 µM.
